Our source for the IC50 values is patent US6936604B2, “Bridged bicyclic amino acid-derived [1,4]benzodiazepine vasopressin receptor antagonists” (Ortho-McNeil Pharmaceutical, Inc., priority 2001, dated 2005).

The chains behind the UniProt entries cited, without tags or fusion partners.
UniProt P30518, whole entry: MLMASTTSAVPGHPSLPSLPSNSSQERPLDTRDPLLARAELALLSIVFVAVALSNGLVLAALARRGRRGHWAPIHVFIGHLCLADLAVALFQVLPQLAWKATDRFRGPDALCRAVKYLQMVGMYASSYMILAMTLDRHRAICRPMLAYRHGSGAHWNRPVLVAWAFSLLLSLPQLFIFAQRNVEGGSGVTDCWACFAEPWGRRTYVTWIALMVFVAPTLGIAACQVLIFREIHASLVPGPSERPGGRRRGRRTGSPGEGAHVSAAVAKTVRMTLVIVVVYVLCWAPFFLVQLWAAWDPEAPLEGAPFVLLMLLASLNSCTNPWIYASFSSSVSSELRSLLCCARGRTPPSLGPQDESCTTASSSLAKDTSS

The target in the experiment is T1, human V2 receptor (Homo sapiens, UniProt P30518).
T1 construct: expressed in transfected cells; host or cells: HEK-293
The experiment in a line: In vitro recombinant vasopressin receptor binding assay (3H-arginine vasopressin displacement), V2. The conditions noted are these: cloned human V2 receptor membranes, HEK-293 cells. The protocol:
In Vitro Recombinant Vasopressin Receptor Binding Assay
Compounds were assessed for their ability to displace ^3H-arginine vasopressin from the human V1a or V2 receptor in HEK-293 cells. Assay buffer is 50 mM Tris-Cl, 5 mM MgCl2, 0.1% BSA (pH 7.5) containing 5 μg/mL of aprotinin, leupeptin, pepstatin, 50 μg/mL bacitracin, and 1 mM Pefabloc. ^3H-vasopressin is ^3H-arginine-8-vasopressin (68.5 Ci/mmol, final concentration in assay is 0.65-0.75 nM). Into wells of 96-well round bottom polypropylene plates were added buffer, test compound, membrane (containing cloned human V1a or V2 receptor) and ^3H-vasopressin. The reaction plates were allowed to sit at room temperature for one hour. The samples were filtered through Unifilter GF/C plates (presoaked in 0.3 polyethyleneimine). The plates were washed 5 times with cold physiological saline containing 0.05% Tween 20. After drying, the bottom of the filter plates were sealed and 0.025 mL of Microscint-20 was added to each filter. The top of the plate was sealed, and the plate was counted.

As to `O=C(Nc1ccc(C(=O)N2CC3C4CCC(CC4)N3Cc3ccccc32)cc1)c1ccccc1-c1ccccc1` (racemic) [Compound 1, N-[4-[(6,6a,7,8,9,10-hexahydro-7,10-ethanopyrido[2,1-c][1,4]benzodiazepin-5(12H)-yl)carbonyl]phenyl]-[1,1′-biphenyl]-2-carboxamide], the 50% inhibitory concentration (IC50) amounted to 6 nM.
